Measurements from patent US5972636A (priority 1997, dated 1999).

How the values were obtained:
[1] = tested on: 1500 kDa complex (proteasome-multipain); assay: Degradation of Ub-125I-lysozyme by the 1500 kDa proteasome-multipain complex; settings: Table VIII; None = 100; 2 mM of the nucleotide or 10 mM PPi
[2] = tested on: new protease (multipain) from skeletal muscle; settings: Table III; None = 100; 2 mM of the nucleotides or 10 mM PPi; 37° C. 1 hour

For PPi, the “Realtive Activity (%) Complex, Ub-lysozyme degradation” value [1] was 113% and the “Relative activity (%), degradation of Ub-125I-lysozyme by the new activity” value [2] was 118%.
